PubChem BioAssay AID1713 (Vanderbilt High Throughput Screening Facility, 2009)
The list shows a part of the results, in another mix than the full data. Records with an inconclusive call do not appear. Activity calls are given as the source filed them.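 Rule for the calls: active = thallium flux slope above the same plate's solvent-only control mean plus 3 SD; inconclusive = the two replicate wells disagree; inactive = no significant difference from solvent-only control wells.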

By UniProt entry, the sequences of proteins in these tests, tags left out. Where a name states a change or a piece, a line headed by the entry shows the natural chain unless it says otherwise.
UniProt Q9H2X9: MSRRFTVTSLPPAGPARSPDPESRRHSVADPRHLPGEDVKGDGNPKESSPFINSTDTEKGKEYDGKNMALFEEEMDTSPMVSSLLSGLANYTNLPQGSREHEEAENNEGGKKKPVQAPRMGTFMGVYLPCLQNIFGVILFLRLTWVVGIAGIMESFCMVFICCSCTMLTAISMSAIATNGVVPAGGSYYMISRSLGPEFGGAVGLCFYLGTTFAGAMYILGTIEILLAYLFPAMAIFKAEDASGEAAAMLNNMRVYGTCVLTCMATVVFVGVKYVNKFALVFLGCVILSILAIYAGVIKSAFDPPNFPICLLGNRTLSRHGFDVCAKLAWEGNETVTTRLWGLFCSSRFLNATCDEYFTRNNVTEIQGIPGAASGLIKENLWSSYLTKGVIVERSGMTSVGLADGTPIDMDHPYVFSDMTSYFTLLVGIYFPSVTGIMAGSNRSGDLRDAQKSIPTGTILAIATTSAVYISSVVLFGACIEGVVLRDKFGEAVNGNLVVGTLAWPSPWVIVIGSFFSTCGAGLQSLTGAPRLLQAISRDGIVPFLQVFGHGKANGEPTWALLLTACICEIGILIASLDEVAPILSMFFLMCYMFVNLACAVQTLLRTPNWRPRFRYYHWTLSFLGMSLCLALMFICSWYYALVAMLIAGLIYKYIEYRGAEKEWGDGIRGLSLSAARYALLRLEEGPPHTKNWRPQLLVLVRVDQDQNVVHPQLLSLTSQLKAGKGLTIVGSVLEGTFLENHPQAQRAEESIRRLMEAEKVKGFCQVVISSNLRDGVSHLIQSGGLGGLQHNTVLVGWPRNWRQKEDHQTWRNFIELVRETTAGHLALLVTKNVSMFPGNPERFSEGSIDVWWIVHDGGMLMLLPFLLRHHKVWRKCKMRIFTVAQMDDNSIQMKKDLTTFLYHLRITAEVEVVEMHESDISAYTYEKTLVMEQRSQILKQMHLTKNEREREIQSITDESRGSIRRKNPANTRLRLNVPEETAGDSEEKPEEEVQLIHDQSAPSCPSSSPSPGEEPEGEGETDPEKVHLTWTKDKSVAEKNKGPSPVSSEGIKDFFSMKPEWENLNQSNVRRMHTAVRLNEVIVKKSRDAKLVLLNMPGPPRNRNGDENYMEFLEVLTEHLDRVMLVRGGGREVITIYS

Molecular target: Solute carrier family 12 member 5 (Homo sapiens) (UniProt Q9H2X9)
Experiment: KCC2 modulators in sodium-free buffer, confirmation, cell-based, HEK293 KCC2, thallium flux, secondary assay (AID 1713)
Conditions: FluoZin2 fluorescence, at 10 µM, active compounds read high
How it was run: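 Test system: KCC2-expressing HEK cells. Medium: Sodium-free N-methylglucamine chloride buffer. Schedule: dye loading 48 min. Technique: kinetic thallium-flux fluorescence imaging.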

Structure (SMILES)	normalised thallium flux (F/F0 slope)
O=c1c2cc([N+](=O)[O-])ccc2[nH]c2c([N+](=O)[O-])cc([N+](=O)[O-])cc12	inactive: 0.00709
O=P(Nc1nc2ccc(Cl)cc2s1)(c1ccccc1)c1ccccc1	inactive: 0.0175
C[N+]1=C2C=CC=CC=C2SC12C([N+](=O)[O-])=CC([N+](=O)[O-])=C[C-]2[N+](=O)[O-] (stereo not drawn)	inactive: 0.00648
